Assay: Ratio of Ki values tested against sigma receptor and Mu receptor

SMILES	Ratio
CN1CCC2(c3cccc(O)c3)CC(=O)/C(=C/c3ccc(Cl)c(Cl)c3)C1C2 (stereo not drawn)	11
CN1CC[C@@]2(c3cccc(O)c3)CC(=O)/C(=C/c3ccc(Cl)c(Cl)c3)[C@H]1C2	7.2
CN1CC[C@@]2(c3cccc(O)c3)CC(=O)/C(=C/c3ccc(Cl)c(Cl)c3)[C@@H]1C2	0.71
